Measured affinities in a library of Ab-14 light chain variants

Reference: Li et al. 2023, doi:10.1038/s41467-023-39022-2. File: FLAb, binding data.

All variants were tested on one target, the spike HR2 peptide PDVDLGDISGINAS (SARS-CoV-2).

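Designed CDR sequences, proposed from the first random library and measured here. Group labels follow the data file (Ctrl: baseline library sampled from a position-specific scoring matrix, with some repeated check sequences; En: ensemble of fine-tuned language models; GP: Gaussian process model; HC: hill climbing; Gen: genetic algorithm; Gibbs: Gibbs sampling; a sequence that several methods proposed may carry one label only). The scFvs were displayed on barcoded MATa yeast, the peptide on MATalpha yeast. The frequency of each diploid, read from paired DNA barcodes, reflects how well the two displayed proteins bind. Read counts were normalised to the haploid input and turned into Kd by a linear fit to BCL2-family pairs of known affinity, for each replicate. The assay was run in six technical replicates.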

Parent: Ab-14, a human scFv built as VH, three GGGGS repeats, VL. Only the CDRs of the light chain vary.
VH: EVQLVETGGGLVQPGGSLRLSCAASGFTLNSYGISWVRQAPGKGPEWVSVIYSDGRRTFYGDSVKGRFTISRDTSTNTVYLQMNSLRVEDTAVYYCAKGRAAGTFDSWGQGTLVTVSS
VL: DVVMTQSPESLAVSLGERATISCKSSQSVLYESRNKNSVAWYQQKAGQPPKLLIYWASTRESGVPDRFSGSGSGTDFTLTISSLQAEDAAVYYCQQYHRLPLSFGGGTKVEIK

Variants are written as CDR1, CDR2 and CDR3 of the light chain (limits as in the source). Parent: KSSQSVLYESRNKNSVA, WASTRES, QQYHRLPLS.
Variants here have more than six changes.
The Kd shown is the geometric mean over detected replicates; a lower Kd is a better binder.
A pair that was not seen in any replicate is written "not detected"; this usually means weak binding, but a binder can also be missed.
The authors averaged sequences with at least three values out of six and counted those with two or fewer as poor binders.
Empty control strains, which show no peptide, gave a signal in 4% of pairings with all light chain designs; the median was 430 nM and 95% of these signals were weaker than 38 nM. No background was subtracted. Also given: how often the same scFv was detected with the empty control strains.
Of ten entries with the parent sequence, four were seen in most replicates (averages 2.2 nM to 240 nM), three in one and three in none, so single entries are noisy.
The range of this assay differs from that of the first round, and the authors advise against merging the two.

CDR-L1	CDR-L2	CDR-L3	group	apparent Kd	seen in	control signals
MLSEVLHMLGVQKNSIA	DLVLRAN	QQYARLPLM	En_Gen	130 nM	3 of 6	0 of 18
TISNSFMMENQFKNSVA	QASTREQ	QCYDRLPLS	En_HC	230 nM	5 of 6	0 of 18
TISGMTNQAMSKHNSVA	NVTMRPE	QQYERLPLS	En_Gen	2.2 nM	6 of 6	3 of 18
HMSMLTLMGQRHVNSVA	QMTTREN	QQYDRLPLA	En_Gen	15 nM	6 of 6	0 of 18
KLYDEAENRVSTATNIA	DKKISLQ	QQYDRLPLS	En_Gibbs	6.1 nM	6 of 6	0 of 18
RFDQTEQMGIRDYNSVA	NGSTSAT	QHYSRLPIS	En_Gibbs	43 nM	6 of 6	0 of 18
YIAENSDNLYQNLSSVA	ETNQVRQ	QQYHLLPLA	En_Gibbs	270 nM	3 of 6	1 of 18
NVGQMMDGMTRNRNNVA	HQSTRED	QHYHRLPLS	En_HC	3.5 nM	6 of 6	0 of 18
KSSGSQQYEDRNSNSVA	HASQRES	QQYHRLPLS	GP_Gibbs	7.9 nM	6 of 6	0 of 18
KLYDEATNRVGTAENIA	EKEISLQ	QQYDRLPLS	En_Gibbs	170 nM	4 of 6	0 of 18
MLQIIPNGYMKMRSNVA	DGSLVRM	QQYARLPLM	En_Gibbs	not detected	0 of 6	0 of 18
KMMQQQLYEDRNSNAVA	NASQRES	QQYHRLPLS	GP_Gibbs	4.7 nM	6 of 6	2 of 18
TLSMSWGMESHHKNNVA	QESTREK	QQYFRLPIS	En_HC	170 nM	4 of 6	1 of 18
KVSDMSAFLSRNRNSVA	DNSTRGS	QQYHRLPLS	En_HC	11 nM	6 of 6	1 of 18
KSAQSKLYDSDNKNPVA	QASTRES	QQYHRLPLR	Ctrl	4.5 nM	6 of 6	0 of 18
KLSSHEQHGTARNSAMA	NAQVSTQ	QQYSHLPLS	En_Gibbs	14 nM	6 of 6	1 of 18
HMSMLTLMGSRQRNSVA	QMTTREN	QQYDRLPLA	En_Gen	51 nM	6 of 6	0 of 18
SIYDATKMESRNKNPIA	DVSTRPS	QQYDRLPLS	En_HC	6.9 nM	6 of 6	1 of 18
MISQLYNMGQFAINSVA	QASQRNM	QQYDRLPLM	En_Gen	21 nM	5 of 6	0 of 18
KLGQSVGYESRNKSRVA	DNSTRES	QQYDRLPLS	En_HC	17 nM	3 of 6	1 of 18
KISASVNYELVNGQSVA	QMSTREE	QQYDRLPLS	En_HC	27 nM	6 of 6	0 of 18
KLQMSAEYQSRNKNSVA	SASQREA	QQYHRLPLS	GP_Gibbs	290 pM	6 of 6	1 of 18
KLSQSWLYEQRNVNSVA	NASKRLL	QQYHRLPLS	GP_Gibbs	890 pM	6 of 6	0 of 18
MIEIIPNGYMEMRSNVA	DGSLVRM	QQYARLPLM	En_Gibbs	not detected	0 of 6	0 of 18
SLSPFMDNYNQKYDSVA	DTANIDI	QQYDRLPLS	En_Gibbs	not detected	0 of 6	0 of 18
MFSTNLHDMGANKHSVA	DMAEVTG	QDYHRLPLS	En_Gibbs	not detected	0 of 6	0 of 18
NLNTYYYGGTLNTDNIA	HGNMVEA	QQYDRLPLQ	En_Gibbs	3.2 nM	6 of 6	2 of 18
KVPQSNLYESRNANNVA	SASQRES	QQYHRLPLS	GP_Gibbs	350 pM	6 of 6	1 of 18
KLSMITGHLQQSKNNVA	EMVTREN	QQYNRLPLS	En_Gen	1.8 nM	6 of 6	1 of 18
HLSLPWQLGHPSTNAVA	NMDVLMT	QQYSRLPLS	En_Gibbs	850 pM	2 of 6	0 of 18
KLSQVTEYESHHKNNVA	DLTTRGS	QDYHRLPLS	En_HC	1.3 nM	6 of 6	0 of 18
SLTIQQDENGLQHQSIA	GAGLRML	QQYHRLPLT	En_Gibbs	2.2 nM	6 of 6	1 of 18
KLSEISHFESKKKNSVA	ENSTREE	QQYDHLPLS	En_HC	100 nM	5 of 6	1 of 18
KVQQSVPYGDRNKNSVA	HASTRSS	QDYHRLPLS	GP_Gibbs	5.7 nM	6 of 6	0 of 18
KVSEFMRGLMSKKDSIA	DNTTRNN	QQYDRLPLS	En_Gen	43 nM	6 of 6	3 of 18
SLMQVGGYETNNHNSIA	DLRTRES	QQYHRLPLS	En_HC	2.8 nM	6 of 6	2 of 18
QIEWHNSGLLEAKNSVA	GVEHRMN	QQYMRLPLE	En_Gibbs	950 pM	6 of 6	1 of 18
KVMGVNGVAMSTHDSIA	QEETRLE	QQYHRLPLS	En_Gen	23 nM	6 of 6	1 of 18
KHQQSELYEERNDNSVA	QASQRES	QDYHRLPLS	GP_Gibbs	7.1 nM	6 of 6	1 of 18
KLSQSQNYLSRVMNSVA	DNSTRES	QQYFRLPLS	En_HC	7.0 nM	6 of 6	0 of 18
MFSQLFMYGSRNRNSVA	QASTRES	QQYDRLPLI	En_HC	12 nM	6 of 6	2 of 18
TLYGLTNSMSKNKDNVA	EMTTREK	QQYDRLPLA	En_Gen	10 nM	6 of 6	1 of 18
SLYELSVELSGKTHSVA	DNSTRGD	QQYFRLPLE	En_Gen	13 nM	6 of 6	1 of 18
KVSQSEWYESRMKNSVA	NASYREQ	QQYHRLPLS	GP_Gibbs	1.2 nM	6 of 6	1 of 18
KASPSEEYESRMKNSVA	NASTRYE	QQYHRLPLS	GP_Gibbs	900 pM	6 of 6	0 of 18
KLGQMTATESRNLNSVA	QMDTRES	QQYHRLPLS	En_HC	77 nM	5 of 6	1 of 18
MLSDLNKMGVRNTQSVA	DNSTRGS	QQYDRLPLS	En_HC	300 nM	6 of 6	5 of 18

Top 2 of the variants detected in all replicates, tightest first:

CDR-L1	CDR-L2	CDR-L3	group	apparent Kd	seen in	control signals
KLQMSAEYQSRNKNSVA	SASQREA	QQYHRLPLS	GP_Gibbs	290 pM	6 of 6	1 of 18
KVPQSNLYESRNANNVA	SASQRES	QQYHRLPLS	GP_Gibbs	350 pM	6 of 6	1 of 18